Data published in patent publication US20150011423A1, “MEANS AND METHODS FOR ASSESSING KIDNEY TOXICITY” (BASF SE, priority 2011, published 2015).
Marks after values point to notes of the source that are not given here.

Tested on: rats
Experiment: 28-day repeated dose study in rats with mass spectrometry-based plasma metabolite profiling (GC-MS, LC-MS, SPE-LC-MS); treatment ratios versus control
Conditions: female rats; for Creatinine, treatment ratio versus control / Galactose, lipid fraction, treatment ratio versus control / Glucuronic acid, treatment ratio versus control / Glycerol-3-phosphate, polar fraction, treatment ratio versus control / Glycine, treatment ratio versus control / Histidine, treatment ratio versus control / Isoleucine, treatment ratio versus control / Leucine, treatment ratio versus control / Lysophosphatidylcholine (C18:1), treatment ratio versus control / Phosphatidylcholine No 02, treatment ratio versus control / TAG No 05, treatment ratio versus control / Threonic acid, treatment ratio versus control / Threonine, treatment ratio versus control / Uracil, treatment ratio versus control / Valine, treatment ratio versus control / Xylitol, treatment ratio versus control: Table 3a tubular defect; for Cysteine, treatment ratio versus control / Glycerol, polar fraction, treatment ratio versus control / Hippuric acid, treatment ratio versus control / Indole-3-acetic acid, treatment ratio versus control / Spermidine, treatment ratio versus control / Sucrose, treatment ratio versus control: Table 3b tubular defect

CC(=O)/C=C/C1=C(C)CCCC1(C)C [Beta-ionone]
Creatinine, treatment ratio versus control (day 14, high dose): 1.61^ | Galactose, lipid fraction, treatment ratio versus control (day 14, high dose): 2.02 * | Glucuronic acid, treatment ratio versus control (day 14, high dose): 2.55 * | Glycerol-3-phosphate, polar fraction, treatment ratio versus control (day 14, high dose): 0.98^ | Glycine, treatment ratio versus control (day 14, high dose): 1.17^ | Histidine, treatment ratio versus control (day 14, high dose): 1.31 * | Isoleucine, treatment ratio versus control (day 14, high dose): 1.14^ | Leucine, treatment ratio versus control (day 14, high dose): 1.26^ | Lysophosphatidylcholine (C18:1), treatment ratio versus control (day 14, high dose): 1.34 * | Phosphatidylcholine No 02, treatment ratio versus control (day 14, high dose): 1.99 * | TAG No 05, treatment ratio versus control (day 14, high dose): 1.65 * | Threonic acid, treatment ratio versus control (day 14, high dose): 1.11^ | Threonine, treatment ratio versus control (day 14, high dose): 1.57 * | Uracil, treatment ratio versus control (day 14, high dose): 0.94^ | Valine, treatment ratio versus control (day 14, high dose): 1.19 * | Xylitol, treatment ratio versus control (day 14, high dose): 1.32 * | Cysteine, treatment ratio versus control (day 14, high dose): 0.86 | Glycerol, polar fraction, treatment ratio versus control (day 14, high dose): 0.83 | Hippuric acid, treatment ratio versus control (day 14, high dose): 0.55 | Indole-3-acetic acid, treatment ratio versus control (day 14, high dose): 0.62 * | Spermidine, treatment ratio versus control (day 14, high dose): 0.54 * | Sucrose, treatment ratio versus control (day 14, high dose): 1.02 | Creatinine, treatment ratio versus control (day 28, high dose): 1.61 | Galactose, lipid fraction, treatment ratio versus control (day 28, high dose): 2.58 * | Glucuronic acid, treatment ratio versus control (day 28, high dose): 2.03 * | Glycerol-3-phosphate, polar fraction, treatment ratio versus control (day 28, high dose): 1.25 | Glycine, treatment ratio versus control (day 28, high dose): 1.18 | Histidine, treatment ratio versus control (day 28, high dose): 1.21 * | Isoleucine, treatment ratio versus control (day 28, high dose): 1.32 | Leucine, treatment ratio versus control (day 28, high dose): 1.36 | Lysophosphatidylcholine (C18:1), treatment ratio versus control (day 28, high dose): 1.42 * | Phosphatidylcholine No 02, treatment ratio versus control (day 28, high dose): 1.76 * | TAG No 05, treatment ratio versus control (day 28, high dose): 1.5 | Threonic acid, treatment ratio versus control (day 28, high dose): 1.21 | Threonine, treatment ratio versus control (day 28, high dose): 1.46 * | Uracil, treatment ratio versus control (day 28, high dose): 0.94 | Valine, treatment ratio versus control (day 28, high dose): 1.42 | Xylitol, treatment ratio versus control (day 28, high dose): 1.88 | Cysteine, treatment ratio versus control (day 28, high dose): 1.06 | Glycerol, polar fraction, treatment ratio versus control (day 28, high dose): 0.65 | Hippuric acid, treatment ratio versus control (day 28, high dose): 0.5 * | Indole-3-acetic acid, treatment ratio versus control (day 28, high dose): 0.81 | Spermidine, treatment ratio versus control (day 28, high dose): 1.17 | Sucrose, treatment ratio versus control (day 28, high dose): 1.37
